# Laboratory results taken from ChEMBL document CHEMBL1149912, “Chemical fragments as foundations for understanding target space and activity prediction” (J Med Chem, 2008).
# Protein sequences, listed by entry. Tags and fused reporters are not part of them. Lines headed by an entry give the natural chain unless they say otherwise; changes in a name come on top.
# UniProt P37231: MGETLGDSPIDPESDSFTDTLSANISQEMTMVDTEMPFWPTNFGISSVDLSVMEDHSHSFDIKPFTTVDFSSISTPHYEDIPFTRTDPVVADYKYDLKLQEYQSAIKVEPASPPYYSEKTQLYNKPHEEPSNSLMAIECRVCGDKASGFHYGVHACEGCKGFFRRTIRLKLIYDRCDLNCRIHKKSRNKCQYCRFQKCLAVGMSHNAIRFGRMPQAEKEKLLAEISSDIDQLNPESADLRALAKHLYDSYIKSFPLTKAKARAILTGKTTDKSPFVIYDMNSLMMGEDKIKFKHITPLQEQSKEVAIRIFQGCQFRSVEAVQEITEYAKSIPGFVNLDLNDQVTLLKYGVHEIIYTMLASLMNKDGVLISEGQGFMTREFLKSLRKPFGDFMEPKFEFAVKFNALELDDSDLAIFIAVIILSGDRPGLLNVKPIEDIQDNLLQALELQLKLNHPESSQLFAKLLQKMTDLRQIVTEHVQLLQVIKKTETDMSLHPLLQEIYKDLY
# UniProt P07711: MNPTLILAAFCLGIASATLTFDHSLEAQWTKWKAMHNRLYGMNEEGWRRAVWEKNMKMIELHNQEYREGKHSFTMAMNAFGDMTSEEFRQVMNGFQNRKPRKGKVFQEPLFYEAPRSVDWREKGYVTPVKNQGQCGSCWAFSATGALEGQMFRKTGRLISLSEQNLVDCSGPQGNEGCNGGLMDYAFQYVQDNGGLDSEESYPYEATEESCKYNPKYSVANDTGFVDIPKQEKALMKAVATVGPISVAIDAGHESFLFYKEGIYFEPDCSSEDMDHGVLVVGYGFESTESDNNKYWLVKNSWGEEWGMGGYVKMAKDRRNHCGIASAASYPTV
# Tests used:
# [1] = biological target: Peroxisome proliferator-activated receptor gamma (Homo sapiens) (UniProt P37231); assay: Inhibition of PPARG
# [2] = biological target: Procathepsin L (Homo sapiens) (UniProt P07711); assay: Inhibition of CTSL
Activity [1] [nM],Activity [2] [nM],Compound
32,–,CCCc1c(OCCCOc2ccc(CC(=O)O)cc2)ccc2c(-c3ccccc3)noc12
–,17,O=C(N[C@@H](Cc1ccccc1)C(=O)N[C@H]1C(=O)N[C@@H]1Oc1ccccc1)OCc1ccccc1
